Literature values, collected in US9005678B1, “Pharmaceutical composition for treating cancer and use thereof” (Jiangsu Province Institute of Traditional Chinese Medicine, priority 2013, dated 2015).

Conditions: cumulative dose of 780 to 850 mg/m^2; cited from earlier work

O=C1[O][Pt]2([NH][C@@H]3CCCC[C@H]3[NH]2)[O]C1=O [oxaliplatin]
cancer patients suffering neurotoxicity: 15%
